Laboratory results reported in patent US7816499B2, “Antibodies that selectively bind HDAC9” (Sloan-Kettering Institute for Cancer Research, priority 2001, dated 2010).

Amino acid sequences for entries named in this document (tags omitted). Residues count along the entry.
UniProt Q9UKV0, 1-879 isoform Q9UKV0-4: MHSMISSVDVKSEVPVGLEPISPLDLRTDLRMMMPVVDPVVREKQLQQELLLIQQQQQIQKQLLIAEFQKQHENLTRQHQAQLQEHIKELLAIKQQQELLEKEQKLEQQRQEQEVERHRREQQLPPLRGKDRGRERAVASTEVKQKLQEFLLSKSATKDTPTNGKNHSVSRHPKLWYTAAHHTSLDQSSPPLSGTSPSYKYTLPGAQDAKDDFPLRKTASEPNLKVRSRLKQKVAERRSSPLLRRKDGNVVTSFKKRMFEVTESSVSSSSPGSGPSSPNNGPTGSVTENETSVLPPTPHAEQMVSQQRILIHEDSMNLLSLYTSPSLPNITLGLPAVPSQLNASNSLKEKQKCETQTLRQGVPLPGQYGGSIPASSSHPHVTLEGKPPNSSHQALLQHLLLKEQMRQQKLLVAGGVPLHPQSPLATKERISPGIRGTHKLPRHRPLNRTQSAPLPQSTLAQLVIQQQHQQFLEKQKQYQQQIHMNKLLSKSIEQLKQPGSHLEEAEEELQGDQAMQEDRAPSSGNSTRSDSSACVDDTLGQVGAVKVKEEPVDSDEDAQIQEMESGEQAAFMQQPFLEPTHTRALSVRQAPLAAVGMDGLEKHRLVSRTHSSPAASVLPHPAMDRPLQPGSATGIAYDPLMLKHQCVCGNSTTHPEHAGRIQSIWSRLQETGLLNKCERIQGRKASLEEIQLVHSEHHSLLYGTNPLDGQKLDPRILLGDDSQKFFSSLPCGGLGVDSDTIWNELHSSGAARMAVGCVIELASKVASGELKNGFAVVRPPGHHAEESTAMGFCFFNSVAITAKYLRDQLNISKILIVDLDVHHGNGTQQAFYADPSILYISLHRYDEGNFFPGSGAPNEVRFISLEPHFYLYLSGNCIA

Key:
[1] = biological target: HDAC9-FLAG (Homo sapiens, UniProt Q9UKV0); conditions: FLUOR DE LYS substrate; TSA 1 μM (FIG. 7), preincubated 15 minutes at room temperature; SAHA concentration not given
[2] = biological target: T1, HDAC9a-FLAG (Homo sapiens, UniProt Q9UKV0); conditions: FLUOR DE LYS substrate; TSA 1 μM (FIG. 7), preincubated 15 minutes at room temperature; SAHA concentration not given
[3] = biological target: T1, HDAC9a-FLAG; experiment: HDAC enzymatic assay, 3H-acetic acid released from 3H-histones; format: biochemical; design: made in house; host or cells: human kidney 293T cells, transient transfection, anti-FLAG M2 agarose immunoprecipitation, elution with FLAG peptide; conditions: 3H-histones substrate; SAHA 2 μM (FIG. 8); preincubated 30 minutes at 4° C.
Description: The reaction was stopped by the addition of 1M HCl/0.1 acetic acid. Released ^3H-acetic acid was extracted with ethyl acetate and quantified by scintillation counting. For inhibition studies, the immunoprecipitated complexes were preincubated with the different HDAC inhibitors for 30 minutes at 4° C.

CC(/C=C/C(=O)NO)=C\[C@@H](C)C(=O)c1ccc(N(C)C)cc1 [TSA, trichostatin A]
inhibited: inhibition of HDAC9 deacetylase activity [1] | inhibition of HDAC9a deacetylase activity [2] | inhibition of histone deacetylase activity of HDAC9a-FLAG [3]
